Reference: US20160376605A1, “WHEAT PLANTS HAVING INCREASED TOLERANCE TO IMIDAZOLINONE HERBICIDES” (BASF SE, priority 2003, published 2016)
Where two headings read alike, the source gives them in different places.

How the values were obtained:
[1] = tested on: AHAS enzyme extracted from durum line UT05
[2] = tested on: AHAS enzyme extracted from durum line UT12
[3] = tested on: AHAS enzyme extracted from durum line UT13
[4] = tested on: AHAS enzyme extracted from durum line UT10
[5] = tested on: AHAS enzyme extracted from durum line UT01
[6] = tested on: AHAS enzyme extracted from durum line UT17
[7] = tested on: AHAS enzyme extracted from durum line UT08
[8] = tested on: AHAS enzyme extracted from durum line UT07
[9] = tested on: AHAS enzyme extracted from durum line UT16
[10] = tested on: AHAS enzyme extracted from durum line C119
[11] = tested on: AHAS enzyme extracted from durum line UT03
[12] = tested on: AHAS enzyme extracted from durum line UT14
[13] = tested on: AHAS protein extracted from wild type Durum wheat plants (Line UT)
[14] = tested on: AHAS enzyme extracted from durum line UT20

COCc1cnc(C2=NC(C)(C(C)C)C(=O)N2)c(C(=O)O)c1 (centres unmarked) [imazamox] was tested, and the “In vitro AHAS activity, expressed as percent of control” value ([1]; 13 uM Imazamox) was 54.1% of control, the “In vitro AHAS activity, expressed as percent of control” value ([1]; 25 uM Imazamox) was 59.5% of control and the “In vitro AHAS activity, expressed as percent of control” value ([1]; 50 uM Imazamox) was 56.9% of control. The “In vitro AHAS activity, expressed as percent of control” value ([1]; 100 uM Imazamox) was 45.4% of control, the “In vitro AHAS activity, expressed as percent of control” value ([2]; 13 uM Imazamox) was 58.3% of control and the “In vitro AHAS activity, expressed as percent of control” value ([2]; 25 uM Imazamox) was 55.6% of control. For the same compound, the “In vitro AHAS activity, expressed as percent of control” value ([2]; 50 uM Imazamox) was 52.7% of control, the “In vitro AHAS activity, expressed as percent of control” value ([2]; 100 uM Imazamox) was 44.9% of control and the “In vitro AHAS activity, expressed as percent of control” value ([3]; 13 uM Imazamox) was 73.2% of control. For the same compound, the “In vitro AHAS activity, expressed as percent of control” value ([3]; 25 uM Imazamox) was 60.4% of control, the “In vitro AHAS activity, expressed as percent of control” value ([3]; 50 uM Imazamox) was 51.8% of control and the “In vitro AHAS activity, expressed as percent of control” value ([3]; 100 uM Imazamox) was 46.5% of control. For the same compound, the “In vitro AHAS activity, expressed as percent of control” value ([4]; 13 uM Imazamox) was 68.4% of control, the “In vitro AHAS activity, expressed as percent of control” value ([4]; 25 uM Imazamox) was 59.7% of control and the “In vitro AHAS activity, expressed as percent of control” value ([4]; 50 uM Imazamox) was 54.9% of control. The “In vitro AHAS activity, expressed as percent of control” value ([4]; 100 uM Imazamox) was 46.6% of control, the “In vitro AHAS activity, expressed as percent of control” value ([5]; 13 uM Imazamox) was 61.6% of control and the “In vitro AHAS activity, expressed as percent of control” value ([5]; 25 uM Imazamox) was 58.5% of control. The “In vitro AHAS activity, expressed as percent of control” value ([5]; 50 uM Imazamox) was 54.1% of control, the “In vitro AHAS activity, expressed as percent of control” value ([5]; 100 uM Imazamox) was 49.6% of control and the “In vitro AHAS activity, expressed as percent of control” value ([6]; 13 uM Imazamox) was 59.3% of control. For the same compound, the “In vitro AHAS activity, expressed as percent of control” value ([6]; 25 uM Imazamox) was 48.0% of control, the “In vitro AHAS activity, expressed as percent of control” value ([6]; 50 uM Imazamox) was 48.0% of control and the “In vitro AHAS activity, expressed as percent of control” value ([6]; 100 uM Imazamox) was 36.5% of control. For the same compound, the “In vitro AHAS activity, expressed as percent of control” value ([7]; 13 uM Imazamox) was 60.3% of control, the “In vitro AHAS activity, expressed as percent of control” value ([7]; 25 uM Imazamox) was 55.3% of control and the “In vitro AHAS activity, expressed as percent of control” value ([7]; 50 uM Imazamox) was 49.6% of control. For the same compound, the “In vitro AHAS activity, expressed as percent of control” value ([7]; 100 uM Imazamox) was 41.2% of control, the “In vitro AHAS activity, expressed as percent of control” value ([8]; 13 uM Imazamox) was 64.3% of control and the “In vitro AHAS activity, expressed as percent of control” value ([8]; 25 uM Imazamox) was 61.3% of control. The “In vitro AHAS activity, expressed as percent of control” value ([8]; 50 uM Imazamox) was 46.9% of control, the “In vitro AHAS activity, expressed as percent of control” value ([8]; 100 uM Imazamox) was 50.6% of control and the “In vitro AHAS activity, expressed as percent of control” value ([9]; 13 uM Imazamox) was 51.9% of control. For the same compound, the “In vitro AHAS activity, expressed as percent of control” value ([9]; 25 uM Imazamox) was 46.7% of control, the “In vitro AHAS activity, expressed as percent of control” value ([9]; 50 uM Imazamox) was 45.5% of control and the “In vitro AHAS activity, expressed as percent of control” value ([9]; 100 uM Imazamox) was 41.7% of control. The “In vitro AHAS activity, expressed as percent of control” value ([10]; 13 uM Imazamox) was 54.0% of control, the “In vitro AHAS activity, expressed as percent of control” value ([10]; 25 uM Imazamox) was 56.3% of control and the “In vitro AHAS activity, expressed as percent of control” value ([10]; 50 uM Imazamox) was 55.3% of control. For the same compound, the “In vitro AHAS activity, expressed as percent of control” value ([10]; 100 uM Imazamox) was 41.9% of control, the “In vitro AHAS activity, expressed as percent of control” value ([11]; 13 uM Imazamox) was 73.7% of control and the “In vitro AHAS activity, expressed as percent of control” value ([11]; 25 uM Imazamox) was 63.5% of control. For the same compound, the “In vitro AHAS activity, expressed as percent of control” value ([11]; 50 uM Imazamox) was 60.3% of control, the “In vitro AHAS activity, expressed as percent of control” value ([11]; 100 uM Imazamox) was 52.2% of control and the “In vitro AHAS activity, expressed as percent of control” value ([12]; 13 uM Imazamox) was 62.4% of control. For the same compound, the “In vitro AHAS activity, expressed as percent of control” value ([12]; 25 uM Imazamox) was 53.5% of control, the “In vitro AHAS activity, expressed as percent of control” value ([12]; 50 uM Imazamox) was 56.8% of control and the “In vitro AHAS activity, expressed as percent of control” value ([12]; 100 uM Imazamox) was 55.6% of control. For the same compound, the “In vitro AHAS activity, expressed as percent of control” value ([13]; 13 uM Imazamox) was 15.9% of control, the “In vitro AHAS activity, expressed as percent of control” value ([13]; 25 uM Imazamox) was 11.1% of control and the “In vitro AHAS activity, expressed as percent of control” value ([13]; 50 uM Imazamox) was 10.2% of control. The “In vitro AHAS activity, expressed as percent of control” value ([13]; 100 uM Imazamox) was 5.4% of control, the “In vitro AHAS activity, expressed as percent of control” value ([14]; 13 uM Imazamox) was 63.4% of control and the “In vitro AHAS activity, expressed as percent of control” value ([14]; 25 uM Imazamox) was 61.8% of control. The “In vitro AHAS activity, expressed as percent of control” value ([14]; 50 uM Imazamox) was 50.3% of control and the “In vitro AHAS activity, expressed as percent of control” value ([14]; 100 uM Imazamox) was 40.3% of control.
